{"source": "BindingDB's records for 23453838", "key": {"Acetylcholinesterase [1]": {"biological_target": "Acetylcholinesterase (Electrophorus electricus, UniProt O42275)", "assay": "ASSAY_NAME: ChEMBL_954155 (CHEMBL2351670) […]"}, "Acetylcholinesterase [2]": {"biological_target": "Acetylcholinesterase (Rattus norvegicus, UniProt P37136)", "assay": "ASSAY_NAME: ChEMBL_954152 (CHEMBL2351425) […]"}}, "data": [{"smiles": "CCOP(=O)(OCC)Oc1ccc([N+](=O)[O-])cc1", "values": [{"measurement": "kon (M-1-s-1)", "setting": "Acetylcholinesterase [1]", "result": 333, "unit": "M⁻¹ s⁻¹"}, {"measurement": "kon (M-1-s-1)", "setting": "Acetylcholinesterase [2]", "result": 267, "unit": "M⁻¹ s⁻¹"}]}]}
